## Antibody variant affinities, Ab-14 light chain, assay B

The target is the same throughout: PDVDLGDISGINAS, from the HR2 region of SARS-CoV-2 spike.

The variants keep the heavy chain, the linker and the frameworks of Ab-14 (scFv order VH, three GGGGS repeats, VL).
VH: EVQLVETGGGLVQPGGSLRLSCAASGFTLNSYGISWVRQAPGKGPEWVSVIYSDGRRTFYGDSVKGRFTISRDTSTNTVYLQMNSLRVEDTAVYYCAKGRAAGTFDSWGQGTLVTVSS
VL: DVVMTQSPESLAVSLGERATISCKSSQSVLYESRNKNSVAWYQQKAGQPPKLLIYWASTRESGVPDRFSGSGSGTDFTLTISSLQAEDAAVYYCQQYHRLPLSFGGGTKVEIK

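The starting antibody came from a phage panning campaign against this peptide. These sequences belong to a second round, designed from the earlier measurements on random variants of the parent. Several design methods are mixed in this list. AlphaSeq pools MATa yeast showing the antibodies with MATalpha yeast showing the peptide. Pairs that bind mate more often; barcode pairs of the diploids are counted by sequencing. A regression on co-assayed BCL2-family reference pairs converts the normalised counts of each replicate to an apparent Kd. There are six technical replicates.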

Variants are written as CDR1, CDR2 and CDR3 of the light chain (limits as in the source). Parent: KSSQSVLYESRNKNSVA, WASTRES, QQYHRLPLS. Each Kd is an estimate from the mating assay, the geometric mean of the replicates in which the pair was seen; lower is stronger. Where no diploid with the target was found in any replicate, the entry reads "no signal": below detection, most likely a poor binder, though not proof of it. As a blank, each scFv also met three strains without target: over all light chain designs, 4% of these pairings were detected, typically at 430 nM and seldom below 38 nM. In the paper, a design with two or fewer of six values counts as a poor binder. The parent sequence was in this pool as ten entries: three were never detected, three once, and four in most replicates, with averages from 2.2 nM to 240 nM. A sequence measured in both rounds can read differently, since the two assays cover different ranges.

apparent Kd | seen in | CDR-L1 | CDR-L2 | CDR-L3
210 nM | 1 of 6 | KSRQSMLYESRNKNSVA | WASTRES | QQYHRLPLS
51 nM | 6 of 6 | HMSMLTLMGSRQRNSVA | QMTTREN | QQYDRLPLA
2.1 nM | 6 of 6 | KSSQSVLGEDGNKNSVA | HASVREE | QQYHRLPLM
470 pM | 6 of 6 | KSSQSWLYESRNKNSVA | NASLRES | QQYHRLPLS
3.7 nM | 6 of 6 | IISQSVLGGYHNKNSVA | QTSERGS | QQYDRLPLS
7.4 nM | 6 of 6 | QLQLQPLFGANAQSSIA | DVSEKDM | QQYARLPLH
3.9 µM | 3 of 6 | HFGLATMLEEYVRNSVA | NNSTREE | QQYDRLPLS
300 nM | 1 of 6 | QLDTGLQYMDANKNSVA | EMTEETT | QQYHRLPLE
2.9 nM | 6 of 6 | KLSQSVLMESRNKNSVA | GASTRES | QQYHRLPLS
1.0 nM | 6 of 6 | HLSDSVLYESRNKNSVA | NASTRES | QQYHRLPLA
20 nM | 5 of 6 | KISQMTRVGMTHSNSIA | EEVTRAK | QQYHRLPLA
740 pM | 6 of 6 | KLSQSWLYESRNKNSVA | NASQREV | QQYHRLPLS
1.2 nM | 6 of 6 | FIMHFGEESNRNSKNIA | SKDTRCD | QQYNRLPLS
2.3 nM | 6 of 6 | ALSQDGFQQHGMRDSIA | HSDQRLA | QQYYHLPLA
320 nM | 5 of 6 | MINMEIGIEDSKWQAVA | SNSVRAS | QQYGRLPFS
570 pM | 6 of 6 | KVSQSVLYESRAKNSVA | NASTRES | QQYHRLPLS
1.2 nM | 6 of 6 | KLSQSVLGESRNKNSVA | DASTRES | QQYHRLPLS
no signal | 0 of 6 | KITQIFFPYGNSWHSVA | NANTLAH | QQYYMLPLM
no signal | 0 of 6 | KSCQSVLYESRNKNSVA | WASTRES | QQYHRLPPS
no signal | 0 of 6 | KSGQGVLYESRNKNSVA | GASTREY | VQYHRLPLS
370 pM | 6 of 6 | KFSQLQLYESRNKNSVA | NASTRES | QQYRRLPLS
2.9 nM | 6 of 6 | KLGSMVLLEHGNKNNIA | QQSTREE | QQYDRLPLS
21 nM | 6 of 6 | HMSMITLQGQRHRNAVA | QMTTREN | QQYDHLPLS
620 pM | 6 of 6 | KVSQSVLYQSRNKNSVA | EASTRES | QQYHRLPLS
4.1 nM | 6 of 6 | KISQSVEYPSVNKNSVA | WASTRES | QQYHRLPLS
750 nM | 1 of 6 | HISEMIFAQMKMRNSVA | ENNTREA | QQYDRLPLS
1.6 nM | 6 of 6 | KTGQGVLYESRNKNSVA | GASMRES | QQYHRLPLS
12 nM | 6 of 6 | KSSQSVPYESRNKNAVA | WASTRES | QQYHRLPLS
150 nM | 5 of 6 | MLSEVLHMLGAKKNSIA | DLVLRAN | QQYHRLPLS
2.2 nM | 6 of 6 | KSSQSPLYESRNKNSVA | GASTRES | QQYHRLPLS
780 pM | 6 of 6 | KCSQSVLGEQRNKNSVA | DISTRES | QQYHRLPLS
16 nM | 6 of 6 | HITMGMYVAGRHHSSIA | QAEERAK | QQYDRLPLS
8.0 nM | 6 of 6 | KSSCSVLYESENKNSVA | EASQRES | QQYHRLPLS
11 nM | 6 of 6 | RFDLWQLESNMTEKSIA | SASNREQ | QQYARLPLF
1.0 nM | 6 of 6 | KVPQSELYESRNKNSVA | EASTRES | QQYHRLPLS
610 pM | 6 of 6 | KLSQSVLNESRNKNSVA | DASTRES | QQYHRLPLS
no signal | 0 of 6 | KSSQSFLYESRNKNSNA | CASTRES | QQYHRLPLS
2.3 nM | 6 of 6 | HVSSMDMADGGIINSVA | GDKLLER | QQYMRLPLS
500 pM | 6 of 6 | KVSQSWLYESRNKNSVA | NASTREV | QQYHRLPLS
130 nM | 6 of 6 | MISQLMNMGQFAINSVA | QASERSN | QQYDRLPLV
880 pM | 6 of 6 | HLSDSVLYESRNKNSVA | GASTRES | QQYHRLPLN
500 pM | 6 of 6 | KVSQSWLMESRNKNSVA | EASTRLS | QQYHRLPLS
17 nM | 6 of 6 | FFSLIQGSYGEANNSIA | ERNTRAP | QQYGRLPLV
290 nM | 6 of 6 | TISQMTSLFSQTINNVA | EVSTREI | QQYDRLPLT
360 pM | 6 of 6 | KLSQSVPYESRNKNNVA | NASTRES | QQYHRLPLS
78 nM | 1 of 6 | KSSQSVLYESENANHVA | WESTRES | QQYHRLPLS
500 pM | 6 of 6 | KISQSVLGESRNKNSVA | DASTRES | QQYHRLPLS
1.5 nM | 6 of 6 | KLLQSVLYESRDKNSVA | HASTRLD | QQYHRLPLS
5.2 nM | 6 of 6 | KISQMVKVGATHSNSIA | EMVTRAN | QQYHRLPLA
4.9 nM | 6 of 6 | KCEQSWWYESRVKNNVA | NASQRES | QQYHRLPLS
86 nM | 6 of 6 | IISGSMLMESKHKNSVA | NAETREY | QHYDRLPLS
no signal | 0 of 6 | MISQLMNLGQFAINSVA | QAEIRNN | QQYDRLPLV
13 nM | 6 of 6 | TISQITSLFSQTINNVA | EVTTREE | QQYDRLPLA
1.2 nM | 6 of 6 | KLSQSKLYESRNKNSVA | NASTRES | QDYHRLPLS
2.0 nM | 6 of 6 | KWSQSVQYSSRNKNSVA | NASTRES | QQYHRLPLS
2.2 nM | 6 of 6 | KLSIVGLHESIDKKSIA | ERSTREN | QQYHRLPLS
3.3 µM | 4 of 6 | KLDMFIPSQKEWDASIA | GATLRPT | QDYARLPLS
21 nM | 6 of 6 | KTSQSVLYESENKNSVA | WASTRES | QQYHRLPLS
660 nM | 2 of 6 | RFDQTEQEGIQDYNSVA | QGSQSGT | QHYSRLPLS
1.2 nM | 6 of 6 | MISDLTQYGSRNVHSVA | DLSTRGS | QQYHRLPLS
6.4 nM | 6 of 6 | ILMQPYKEPGAAYNNIA | DGSIRLD | QQYHRLPLV
410 pM | 6 of 6 | KFQQSVLYESRNKNSVA | EASTRES | QQYHRLPLS
27 nM | 3 of 6 | QFHQGMIGDQRNMHSIA | NAQAAVP | QYYFRLPLT
4.4 nM | 6 of 6 | KISQVTHSESRNKNSIA | EMVTREV | QQYDRLPLS
44 nM | 6 of 6 | KSSQSELYESRNKNDVA | WASKRES | QQYHRLPLS
1.2 nM | 6 of 6 | KQSQEVLMESRNKNSVA | DASTRES | QQYHRLPLS
4.4 nM | 6 of 6 | MIGQMLGWESNKIHSVA | QANLRVE | QQYDRLPLE
130 nM | 5 of 6 | MLSQMTGLGQKVRNSVA | QASMRFN | QQYHRLPLI
2.4 nM | 6 of 6 | KYSQSVLYESNNSNSVA | SASTRES | QQYHRLPLS
8.6 nM | 6 of 6 | KISQSELYSSRNKNHVA | WASTRES | QQYHRLPLS
31 nM | 6 of 6 | KQQMSVMMGSRNKNSVA | SASKREA | QQYHRLPLS
710 pM | 6 of 6 | KLQAQDEYWSRNKNSVA | QASTRED | QQYHRLPLS
4.7 nM | 6 of 6 | SSNGNLRMGERNKNHVA | STDVRES | QQYSRLPLV
25 nM | 6 of 6 | ALKQTGSMMHAARKNVA | HADTRAA | QQYATLPLT
960 pM | 6 of 6 | KLSQSDLYESRNKNSVA | QASTRMS | QQYHRLPLS
720 pM | 6 of 6 | RVQLNSGHIDMHWYSIA | SASIRAD | QQYFRLPLF
no signal | 0 of 6 | KSSQSVLYESRNKNSVA | WASTREL | QQYDRLELS
1.3 nM | 6 of 6 | KIGATLNMLEHKQNNVA | DLVTRED | QQYHRLPLS

Excerpt, the first 10 entries:

CDR-L1,CDR-L2,CDR-L3,apparent Kd,seen in
KSRQSMLYESRNKNSVA,WASTRES,QQYHRLPLS,210 nM,1 of 6
HMSMLTLMGSRQRNSVA,QMTTREN,QQYDRLPLA,51 nM,6 of 6
KSSQSVLGEDGNKNSVA,HASVREE,QQYHRLPLM,2.1 nM,6 of 6
KSSQSWLYESRNKNSVA,NASLRES,QQYHRLPLS,470 pM,6 of 6
IISQSVLGGYHNKNSVA,QTSERGS,QQYDRLPLS,3.7 nM,6 of 6
QLQLQPLFGANAQSSIA,DVSEKDM,QQYARLPLH,7.4 nM,6 of 6
HFGLATMLEEYVRNSVA,NNSTREE,QQYDRLPLS,3.9 µM,3 of 6
QLDTGLQYMDANKNSVA,EMTEETT,QQYHRLPLE,300 nM,1 of 6
KLSQSVLMESRNKNSVA,GASTRES,QQYHRLPLS,2.9 nM,6 of 6
HLSDSVLYESRNKNSVA,NASTRES,QQYHRLPLA,1.0 nM,6 of 6

Data: MIT Lincoln Laboratory AlphaSeq set, Li et al. 2023, doi:10.1038/s41467-023-39022-2, as distributed in FLAb.